Literature values in patent US10668039B2, “Methods for treatment of adenoid cystic carcinoma” (THE CHILDREN'S MEDICAL CENTER CORPORATION, priority 2016, dated 2020).

Test system: ACC
Conditions: Phase II trials in ACC; cited from earlier work

Substance: Cetuximab: targeted anticancer agent of a Phase II trial in ACC
- Objective Response Rate: 0%
